The chains are these.
B1: artificial protein PM (PWWP domain of Dnmt3a, naturally occurring linker of 21 amino acids, chromodomain of MPP8, N-terminal GST tag) (designed binder)
chain: MSPILGYWKIKGLVQPTRLLLEYLEEKYEEHLYERDEGDKWRNKKFELGLEFPNLPYYIDGDVKLTQSMAIIRYIADKHNMLGGCPKERAEISMLEGAVLDIRYGVSRIAYSKDFETLKVDFLSKLPEMLKMFEDRLCHKTYLNGDHVTHPDFMLYDALDVVLYMDPMCLDAFPKLVCFKKRIEAIPQIDKYLKSSKYIAWPLQGWQATFGGGDHPPKSDLEVLFQGPLGSPGILGSEYEDGRGFGIGELVWGKLRGFSWWPGRIVSWWMTGRSRAAEGTRWVMWFGDGKFSVVCVEKLMPLSSFCSAFHQATYNKQPMYRKAIYEVLQVASSRAGKLFPACHDSDESDSGKAVEVQNKQMIEWALGGFQPSGPKGLEPPLERPHRDVFEVEKILDMKTEGGKVLYKVRWKGYTSDDDTWEPEIHLEDCKEVLLEFRKKIAEPGSTRAAAS
notes: Each artificial protein carries an N-terminal GST tag (pGEX-6P-2)
B2: variant of PM with pocket mutation F59A in the chromodomain of MPP8 (designed binder)
chain: MSPILGYWKIKGLVQPTRLLLEYLEEKYEEHLYERDEGDKWRNKKFELGLEFPNLPYYIDGDVKLTQSMAIIRYIADKHNMLGGCPKERAEISMLEGAVLDIRYGVSRIAYSKDFETLKVDFLSKLPEMLKMFEDRLCHKTYLNGDHVTHPDFMLYDALDVVLYMDPMCLDAFPKLVCFKKRIEAIPQIDKYLKSSKYIAWPLQGWQATFGGGDHPPKSDLEVLFQGPLGSPGILGSEYEDGRGFGIGELVWGKLRGFSWWPGRIVSWWMTGRSRAAEGTRWVMWFGDGKFSVVCVEKLMPLSSFCSAFHQATYNKQPMYRKAIYEVLQVASSRAGKLFPACHDSDESDSGKAVEVQNKQMIEWALGGFQPSGPKGLEPPLERPHRDVAEVEKILDMKTEGGKVLYKVRWKGYTSDDDTWEPEIHLEDCKEVLLEFRKKIAEPGSTRAAAS
notes: N-terminal GST tag
B3: variant of PM with pocket mutation D329A in the PWWP domain of Dnmt3a (designed binder)
chain: MSPILGYWKIKGLVQPTRLLLEYLEEKYEEHLYERDEGDKWRNKKFELGLEFPNLPYYIDGDVKLTQSMAIIRYIADKHNMLGGCPKERAEISMLEGAVLDIRYGVSRIAYSKDFETLKVDFLSKLPEMLKMFEDRLCHKTYLNGDHVTHPDFMLYDALDVVLYMDPMCLDAFPKLVCFKKRIEAIPQIDKYLKSSKYIAWPLQGWQATFGGGDHPPKSDLEVLFQGPLGSPGILGSEYEDGRGFGIGELVWGKLRGFSWWPGRIVSWWMTGRSRAAEGTRWVMWFGAGKFSVVCVEKLMPLSSFCSAFHQATYNKQPMYRKAIYEVLQVASSRAGKLFPACHDSDESDSGKAVEVQNKQMIEWALGGFQPSGPKGLEPPLERPHRDVFEVEKILDMKTEGGKVLYKVRWKGYTSDDDTWEPEIHLEDCKEVLLEFRKKIAEPGSTRAAAS
notes: N-terminal GST tag
B4: artificial protein PLP (PWWP domain of Dnmt3a, artificial linker of 27 amino acids, PWWP domain of Dnmt3a, N-terminal GST tag) (designed binder)
chain: MSPILGYWKIKGLVQPTRLLLEYLEEKYEEHLYERDEGDKWRNKKFELGLEFPNLPYYIDGDVKLTQSMAIIRYIADKHNMLGGCPKERAEISMLEGAVLDIRYGVSRIAYSKDFETLKVDFLSKLPEMLKMFEDRLCHKTYLNGDHVTHPDFMLYDALDVVLYMDPMCLDAFPKLVCFKKRIEAIPQIDKYLKSSKYIAWPLQGWQATFGGGDHPPKSDLEVLFQGPLGSPGILGSEYEDGRGFGIGELVWGKLRGFSWWPGRIVSWWMTGRSRAAEGTRWVMWFGDGKFSVVCVEKLMPLSSFCSAFHQATYNKQPMYRKAIYEVLQVASSRAGKLFPACHDSDESDSGKAVEVQNKQMIEWALGGFQPSGPKGLEPPLERPHRDSSGNSNANSRGPSFSSGLVPLSLRGSHGSEYEDGRGFGIGELVWGKLRGFSWWPGRIVSWWMTGRSRAAEGTRWVMWFGDGKFSVVCVEKLMPLSSFCSAFHQATYNKQPMYRKAIYEVLQVASSRAGKLFPACHDSDESDSGKAVEVQNKQMIEWALGGFQPSGPKGLEPPLERPHRD
notes: N-terminal GST tag
B5: artificial protein PT (PWWP domain of Dnmt3a, naturally occurring linker of 14 amino acids, PHD domain of TAF3, N-terminal GST tag) (designed binder)
chain: MSPILGYWKIKGLVQPTRLLLEYLEEKYEEHLYERDEGDKWRNKKFELGLEFPNLPYYIDGDVKLTQSMAIIRYIADKHNMLGGCPKERAEISMLEGAVLDIRYGVSRIAYSKDFETLKVDFLSKLPEMLKMFEDRLCHKTYLNGDHVTHPDFMLYDALDVVLYMDPMCLDAFPKLVCFKKRIEAIPQIDKYLKSSKYIAWPLQGWQATFGGGDHPPKSDLEVLFQGPLGSEYEDGRGFGIGELVWGKLRGFSWWPGRIVSWWMTGRSRAAEGTRWVMWFGDGKFSVVCVEKLMPLSSFCSAFHQATYNKQPMYRKAIYEVLQVASSRAGKLFPACHDSDESDSGKAVEVQNKQMIEWALGGFQPSGPKGLEPPVIRDEWGNQIWICPGCNKPDDGSPMIGCDDCDDWYHWPCVGIMTAPPEEMQWFCPKCANKKKDKKHKKRKHRAH
notes: N-terminal GST tag

In the assay the target is recombinant histone H4 (no post-translational modifications). The assay is described as follows: far-western blot.
As for B1, the binding result was “no binding (tested: 10 nM)”.
As for B2, the binding result is listed as “no binding (tested: 10 nM)”.
Turning to B3, the binding result is “no binding (tested: 10 nM)”.
For B4, the binding result was “no binding”.
B5: the binding result was “no binding”.

Source of the values: patent US20180066029A1 (UNIVERSIT T STUTTGART, published 2018).
